The list shows a part of the results, in another mix than the full data. Entries with a potency or affinity are not part of this list. Active and inactive are the calls of the source.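 How the source made its calls: active means Decreasing signal and fitted IC50 at most twice the top valid tested dose; inconclusive means Bad fit or a level curve showing 30 to 70% inhibition; inactive means the rest.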
Each compound was assayed against NAD-dependent protein deacylase sirtuin-5, mitochondrial (Homo sapiens) (UniProt Q9NXA8) (assay: SIRT5 desuccinylase inhibitors, dose response, biochemical, fluorescence imaging, cherry-pick, set 5 (AID 720591;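 further: 0% = median of neutral control wells and -100% = median of positive control wells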)). Details: Purified SirT5, succinyl-peptide AMC, trypsin-coupled fluorescence; at 15 µM (top of the series).

Chains of the proteins cited; added tags and fusions are not shown. Lines headed by an entry give the natural chain unless they say otherwise; changes in a name come on top.
UniProt Q9NXA8: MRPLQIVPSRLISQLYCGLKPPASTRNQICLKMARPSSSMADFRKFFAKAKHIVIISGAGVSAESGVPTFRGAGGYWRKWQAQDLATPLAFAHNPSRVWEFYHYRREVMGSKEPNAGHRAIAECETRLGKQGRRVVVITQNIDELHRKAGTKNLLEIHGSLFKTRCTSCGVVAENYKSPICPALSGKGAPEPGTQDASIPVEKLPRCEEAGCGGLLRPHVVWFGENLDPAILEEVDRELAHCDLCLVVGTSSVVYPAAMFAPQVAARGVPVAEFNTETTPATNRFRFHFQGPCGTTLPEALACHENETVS

Structure (SMILES) | activity change, negative = inhibition
CCCCOc1ccc(C(=O)NCC2(N3CCCCC3)CCCCC2)cc1OC | inactive: -19.5%
